Data as given in patent US20130338130A1 (priority 2009, published 2013).

Assay: Water solubility of MSM
Format: physicochemical
Settings: room temperature
Source text: MSM is structurally related to dimethyl sulfoxide (DMSO), but the behavior of these two is different. […] MSM is well known as a nutritional supplement and as a pharmaceutical agent (see, e.g., Jacob and Appleton, MSM; the definitive guide: A comprehensive review of the science and therapeutics of Methylsulfonylmethane, Topanga, Calif.: […] Altern. Complement. […] One of skill in the relevant art will be familiar with these uses. Various grades of MSM are available commercially (for example, OptiMSM® sold by Bergstrom Nutrition, Corp., Vancouver, Wash.); one of skill in the art will be familiar with a source of MSM. MSM is highly water soluble.

For `CS(C)(=O)=O` [MSM, Methylsulfonylmethane], the “aqueous solutions that can be prepared easily” value was 20%.
